Assay results: patent US20130316985A1, “GPR35 Ligands And Uses Thereof” (CORNING INCORPORATED, priority 2012, published 2013)
This is a selection: effects in other tests are not listed, and their absence says nothing.

Chains of the proteins cited; added tags and fusions are not shown.
UniProt Q9HC97, whole entry: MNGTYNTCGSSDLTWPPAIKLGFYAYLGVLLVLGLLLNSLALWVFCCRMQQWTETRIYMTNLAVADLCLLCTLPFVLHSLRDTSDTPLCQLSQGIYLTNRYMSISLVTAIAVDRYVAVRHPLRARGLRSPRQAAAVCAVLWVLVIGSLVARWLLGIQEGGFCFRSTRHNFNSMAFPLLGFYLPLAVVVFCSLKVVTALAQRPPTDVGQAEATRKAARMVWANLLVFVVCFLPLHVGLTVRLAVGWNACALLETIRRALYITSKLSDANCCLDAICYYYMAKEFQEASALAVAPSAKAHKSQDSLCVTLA

Assays:
GPR35 [1] = molecular target: T1, GPR35 (Homo sapiens, UniProt Q9HC97); test: Tango β-arrestin translocation gene reporter assay in U2OS-GPR35-bla cells; type: cell-based
GPR35 [2] = molecular target: T1, GPR35; test: DMR agonism assay in native HT-29 cells (Epic optical biosensor); details: maximal DMR response in HT-29 (2,5-DNP: amplitude at 50 min)

Compound: Nc1cc([N+](=O)[O-])cc([N+](=O)[O-])c1O
- efficacy (Tango, normalized to maximal response of zaprinast) (GPR35 [1]; U2OS-GPR35-bla, zaprinast maximal response in same plate = 100%): 91%
- Efficacy Tango (GPR35 [1]; maximal response normalized to the zaprinast maximal response): 91 ± 6 % zaprinast
- Efficacy DMR (GPR35 [2]): 212 ± 17 pm
